Consider “PEG-epigallocatechin gallate conjugate [PEG-EGCG]”, for which the water solubility result is “water soluble”.
Consider “PEG-oligomeric epigallocatechin gallate [PEG-OEGCG]”, for which the water solubility result is given as “not water soluble”.
With “oligomeric epigallocatechin gallate [OEGCG]”, the solubility in solvents entry (various solvents) was “soluble in good solvents for EGCG, such as DMSO, N,N-dimethylformamide, acetone, ethanol, methanol, tetrahydrohuran and an alkaline aqueous solution except for water”.
